Paper PMC10407255, “Comparison of activity, structure, and dynamics of SF-1 and LRH-1 complexed with small molecule modulators” (The Journal of Biological Chemistry, 2023)

Chains of the proteins cited; added tags and fusions are not shown.
UniProt Q13285, whole entry: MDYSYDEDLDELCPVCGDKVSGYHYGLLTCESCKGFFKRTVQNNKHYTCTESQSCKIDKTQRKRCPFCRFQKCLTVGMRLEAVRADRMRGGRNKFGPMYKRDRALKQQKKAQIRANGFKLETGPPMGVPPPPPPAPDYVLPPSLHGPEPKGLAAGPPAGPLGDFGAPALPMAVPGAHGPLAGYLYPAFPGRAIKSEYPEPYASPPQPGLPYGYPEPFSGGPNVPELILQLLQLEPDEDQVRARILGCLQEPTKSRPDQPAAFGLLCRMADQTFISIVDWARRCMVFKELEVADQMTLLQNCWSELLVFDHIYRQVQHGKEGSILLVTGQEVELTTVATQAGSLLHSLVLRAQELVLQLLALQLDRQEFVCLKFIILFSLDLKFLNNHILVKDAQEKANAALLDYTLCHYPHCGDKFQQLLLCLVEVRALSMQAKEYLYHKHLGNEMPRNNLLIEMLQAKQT
UniProt O00482, whole entry: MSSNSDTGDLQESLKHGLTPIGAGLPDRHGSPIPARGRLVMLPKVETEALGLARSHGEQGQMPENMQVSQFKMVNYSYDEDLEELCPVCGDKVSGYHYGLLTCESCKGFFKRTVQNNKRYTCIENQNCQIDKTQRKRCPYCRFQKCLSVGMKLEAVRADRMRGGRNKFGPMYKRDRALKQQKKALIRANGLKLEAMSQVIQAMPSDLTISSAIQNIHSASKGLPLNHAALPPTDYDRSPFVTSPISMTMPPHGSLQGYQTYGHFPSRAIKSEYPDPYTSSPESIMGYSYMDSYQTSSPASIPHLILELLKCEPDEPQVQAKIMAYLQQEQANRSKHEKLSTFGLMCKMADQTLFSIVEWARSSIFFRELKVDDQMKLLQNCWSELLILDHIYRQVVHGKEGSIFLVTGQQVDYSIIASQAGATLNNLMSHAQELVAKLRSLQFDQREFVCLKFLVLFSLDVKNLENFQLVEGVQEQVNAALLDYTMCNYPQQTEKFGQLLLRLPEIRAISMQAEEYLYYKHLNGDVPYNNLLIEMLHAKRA

How the values were obtained:
SF-1 = target: T1, SF-1 (Homo sapiens, UniProt Q13285); assay: Luciferase reporter assay, SF-1, HeLa cells; assay type: cell-based; conditions: small molecule at 0.1, 1, and 10 μM, relative to DMSO control
T1 construct: expressed in transfected cells; host or cells: HeLa
Protocol: (§1) Reporter assays were conducted as described previously ([47], [52], [53]). Briefly, HeLa cells were seeded at ∼7500 to 10,000 cells per well in 96-well plates (white-walled, clear bottom) in MEMα + 10% FBS – charcoal/dextran treated. Once cells reached 80 to 90% confluence, they were transfected with LRH-1 (in pCI vector, 5 ng/well) or SF-1 (in pcDNA vector, 5 ng/well), a reporter plasmid with an NR5A response element derived from the SHP promoter cloned upstream of Firefly Luciferase (in pGL3-Basic vector, 50 ng/well), and a plasmid expressing Renilla Luciferase constitutively from a CMV promoter (1 ng/well). Cells were transfected with FuGENE at a ratio of 3:1 (FuGENE:DNA). Twenty-four hours after transfection, compounds were diluted in Opti-MEM and introduced to cells at the final concentrations indicated in figures (final DMSO concentration was 0.37%). Luciferase signal was measured after ∼24 h using the DualGlo kit (Promega) with a BioTek Neo plate reader. Each experiment was conducted with three biological replicates, each with three technical replicates averaged prior to data analysis. Firefly Luciferase signal for each well was divided by the well’s Renilla Luciferase signal intensity and then normalized relative to the DMSO control. Data were analyzed with GraphPad Prism (version 9) using a stimulating dose–response curve (Hill slope = 1).

LRH-1 = target: T2, LRH-1 (Homo sapiens, UniProt O00482); assay: Luciferase reporter assay, LRH-1, HeLa cells; assay type: cell-based; conditions: small molecule at 0.1, 1, and 10 μM, relative to DMSO control
T2 construct: expressed in transfected cells; host or cells: HeLa
Protocol: as §1

SF-1 activation in luciferase reporter assay (SF-1): without activating SF-1 | LRH-1 activation in luciferase reporter assay (LRH-1): activated LRH-1
Compound: C=C(c1ccccc1)C12CCC(n3ccnn3)C1CC(CCCCCC)=C2c1ccccc1 (centres unmarked) [7N]
